Protein sequences, listed by entry. Tags and fused reporters are not part of them. Lines headed by an entry give the natural chain unless they say otherwise; changes in a name come on top.
UniProt P08253: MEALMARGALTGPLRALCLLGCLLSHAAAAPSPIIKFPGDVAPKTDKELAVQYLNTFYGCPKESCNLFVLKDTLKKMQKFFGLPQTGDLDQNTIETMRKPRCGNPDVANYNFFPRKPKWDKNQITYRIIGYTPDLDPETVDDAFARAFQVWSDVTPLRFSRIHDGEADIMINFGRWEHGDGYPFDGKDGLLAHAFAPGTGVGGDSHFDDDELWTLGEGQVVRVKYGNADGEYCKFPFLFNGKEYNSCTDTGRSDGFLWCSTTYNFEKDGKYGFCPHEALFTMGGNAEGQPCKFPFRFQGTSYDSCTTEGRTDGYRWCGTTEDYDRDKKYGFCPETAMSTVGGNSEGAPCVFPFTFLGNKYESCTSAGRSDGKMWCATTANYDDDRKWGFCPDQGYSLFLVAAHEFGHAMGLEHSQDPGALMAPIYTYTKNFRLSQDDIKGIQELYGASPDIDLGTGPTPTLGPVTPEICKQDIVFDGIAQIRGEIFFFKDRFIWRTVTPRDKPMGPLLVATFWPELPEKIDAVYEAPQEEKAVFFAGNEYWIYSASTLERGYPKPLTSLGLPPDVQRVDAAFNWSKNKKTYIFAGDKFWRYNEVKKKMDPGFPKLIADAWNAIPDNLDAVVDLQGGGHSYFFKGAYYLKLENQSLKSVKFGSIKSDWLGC

According to ChEMBL document CHEMBL1142820, “Identification of potent and selective MMP-13 inhibitors” (Bioorg Med Chem Lett, 2005):

Assays:
Collagenase 3 = Collagenase 3 (Bos taurus, UniProt O77656); assay: Inhibitory concentration against MMP-13 of bovine articular cartilage explants
[1] = target: 72 kDa type IV collagenase (Homo sapiens, UniProt P08253); assay: Inhibitory concentration against MMP-2
Summary of the method: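 Continuous fluorescence assay of commercially sourced enzyme cleaving a synthetic peptide whose fluorophore (7-methoxycoumarin or 2-aminobenzoyl) is quenched by 2,4-dinitrophenyl. Signal is read at the fluorophore's excitation/emission wavelengths. MMP-2 was preactivated with APMA. MMP-3 used substrate Mca-PKPLAL-Dpa-AR-NH2. Substrate level relative to Km was set so that IC50 stays within 2-fold of Ki (Cheng-Prusoff).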

SMILES | pIC50 (Collagenase 3) | pIC50 [1]
CC(C)[C@H](NS(=O)(=O)c1ccc(-c2ccc(NC(=O)c3cc4ccccc4o3)cc2)cc1)C(=O)O | 8.89 | –
COc1cccc(C(=O)Nc2ccc(-c3ccc(S(=O)(=O)N[C@H](C(=O)O)C(C)C)cc3)cc2)c1 | 7.86 | 7.85

pIC50: −log10 of the molar value.
